PubChem BioAssay AID624297 (National Center for Advancing Translational Sciences (NCATS), 2012)
The list shows a part of the results, in another mix than the full data. Some of these compounds have results that are not shown, active ones among them. Results filed as inconclusive are left out. The source made the active and inactive calls. The call rests on the fitted dose curve; in most records, active means well fitted activation curve with a large enough effect; inconclusive means small, poorly fitted or top-dose-only effect; inactive means no such curve, though single readings can be large or run the other way.

Test: A quantitative high throughput screen for small molecules that induce DNA re-replication in SW480 colon adenocarcinoma cells. Further: % of control where 0% means no effect; nearly all actives have a fitted effect of over 55% in size.
Details: Hoechst DNA content imaging, 48 h; at 46.1 µM (top of the series)

SMILES | re-replication activation
CC(C)Oc1ccc(C(=O)NCC2(N(C)C)CCCCC2)cc1 | inactive: -0.0097%
CN(C)c1cccc(C(=O)NCC2(N(C)C)CCCCC2)c1 | inactive: -5.92%
COc1ccc(Br)c(C(=O)NCC2(N3CCCCC3)CCCCC2)c1 | inactive: 13%
O=C(OC1CN2CCC1CC2)C(CO)(c1ccccc1)c1ccccc1 (stereo not given) | inactive: -9.25%
O=C(NCC1(N2CCCCC2)CCCCC1)c1cccc(Cl)c1 | inactive: 0.641%
COc1cccc(C(=O)NCC2(N3CCCCC3)CCCCC2)c1 | inactive: -3.72%
COc1ccc(Cl)cc1C(=O)NCC1(N(C)C)CCCCC1 | inactive: -2.79%
COc1cc(C(=O)NCC2(N(C)C)CCCCC2)c([N+](=O)[O-])cc1OC | inactive: -6.45%
CN(C)C1(CNC(=O)c2ccc(Br)cc2)CCCCC1 | inactive: 3.24%
COc1ccc(C(=O)NCC2(N(C)C)CCCCC2)cc1 | inactive: -10.6%
Cc1cc(C(=O)NCC2(N3CCCCC3)CCCCC2)ccc1[N+](=O)[O-] | inactive: -5.66%
CCN1CCCC(OC(=O)C2(O)c3ccccc3C=Cc3ccccc32)C1 (stereo not given) | inactive: 14.8%
O=C(NCC1(N2CCCCC2)CCCCC1)c1cccc(Br)c1 | inactive: -2.74%
C=CCN1CCN(CCOC(=O)C(O)(c2ccccc2)c2ccccc2)CC1 | inactive: -9.3%
O=C(NCC1(N2CCCCC2)CCCCC1)c1cc(F)c(F)cc1Cl | inactive: -1.42%
CN1CCCC(OC(=O)C(O)(c2ccccc2)c2ccccc2)C1 (stereo not given) | inactive: 3.93%
Cc1ccccc1C(=O)NCC1(N2CCCCC2)CCCCC1 | inactive: -3.59%
CN(C)C1CCCC1OC(=O)C(O)(c1ccccc1)c1ccccc1 (stereo not given) | inactive: -2.46%
CN(C)c1ccc(C(=O)NCC2(N(C)C)CCCCC2)cc1 | inactive: -3.18%
Cc1ccc(C(=O)NCC2(N3CCCCC3)CCCCC2)cc1 | inactive: -1.17%
CCN(CC)CC(C)C(C)OC(=O)C(O)(c1ccccc1)c1ccccc1 (stereo not given) | inactive: -1.08%
COc1cc(SC)ccc1C(=O)NCC1(N(C)C)CCCCC1 | inactive: -2.56%
CC(C)N1C(=O)CC2(CCN(CCOC(=O)C(O)(c3ccccc3)c3ccccc3)CC2)C1=O | inactive: -6.42%
CN1[C@@H]2CC[C@H]1CC(OC(=O)C(O)(c1ccccc1)c1ccccc1)C2 (stereo not given in full) | inactive: -3.91%
O=C(NCC1(N2CCCCC2)CCCCC1)c1cc([N+](=O)[O-])ccc1Cl | inactive: 2.88%
